## Apparent affinities of Ab-14 variants for a coronavirus HR2 peptide

Target peptide (SARS-CoV-2 spike, HR2 region): PDVDLGDISGINAS

Parent scFv Ab-14: VH joined to VL by a 15-residue (Gly4Ser)3 linker. Changes lie in the light chain CDRs alone.
VH: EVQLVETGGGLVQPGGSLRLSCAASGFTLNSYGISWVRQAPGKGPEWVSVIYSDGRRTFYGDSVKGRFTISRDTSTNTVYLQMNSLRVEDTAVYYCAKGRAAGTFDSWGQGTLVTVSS
VL: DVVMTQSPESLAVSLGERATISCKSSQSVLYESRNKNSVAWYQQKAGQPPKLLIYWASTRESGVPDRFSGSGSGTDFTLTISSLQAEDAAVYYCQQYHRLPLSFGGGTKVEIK

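Phage display of a naive human antibody library on the peptide gave the parent. Library AAYL50 holds single substitutions and randomly drawn double and triple substitutions in the CDRs. In AlphaSeq, yeast of one mating type display the scFv and yeast of the other type display the target. Mating (16 h, 30 °C) was followed by selection of diploids and sequencing of their barcodes. The ratio of observed to expected reads was calibrated, replicate by replicate, on BCL2-family standards whose Kd was known from biolayer interferometry. The assay was run in three technical replicates.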

Substitutions are numbered in sequence along the VL above, starting at 1 (not Kabat).
Affinities are written as log10 Kd with Kd in nM; a lower number is a better binder.
Averages over replicates are reported, and they cover detected replicates only.
An entry "n.d." has no value in the source: the pair was not observed among the diploids in that replicate. This suggests poor binding but is not conclusive.

| # | changes | log10 Kd, replicates | mean log10 Kd (nM) | signal with controls |
|---|---|---|---|---|
| 1 | K24W S26A R99Y | 2.62 / 2.45 / 4.46 | 3.18 | 1 of 9 (4.24) |
| 2 | A57Y S58G L102F | n.d. / n.d. / n.d. | n.d. | 1 of 9 (4.15) |
| 3 | K24G N37W R99E | 2.23 / 2.25 / 3.44 | 2.64 | 0 of 9 |
| 4 | S25K V39A P101Q | n.d. / n.d. / n.d. | n.d. | 1 of 9 (3.55) |
| 5 | S25G A40P S103V | n.d. / n.d. / n.d. | n.d. | 1 of 9 (3.38) |
| 6 | S25C Q27D L100N | n.d. / n.d. / n.d. | n.d. | 0 of 9 |
| 7 | S25N S58F | n.d. / n.d. / n.d. | n.d. | 2 of 9 (3.04) |
| 8 | K36C V39P A57M | n.d. / n.d. / n.d. | n.d. | 1 of 9 (3.94) |
| 9 | E61G S62T Y97F | 1.40 / 1.54 / 1.26 | 1.40 | 2 of 9 (3.71) |
| 10 | R34V A40S L100R | n.d. / n.d. / n.d. | n.d. | 0 of 9 |
| 11 | E32T V39I R99D | 2.01 / 1.99 / 2.06 | 2.02 | 5 of 9 (4.52) |
| 12 | V39F A40K Q96G | n.d. / n.d. / 4.06 | 4.06 | 3 of 9 (3.82) |
| 13 | Q27G N37E Q96M | 2.72 / 2.48 / 2.19 | 2.46 | 3 of 9 (4.88) |
| 14 | S26R W56F Y97W | 5.08 / n.d. / 3.57 | 4.32 | 5 of 9 (4.15) |
| 15 | S25K K36C P101K | n.d. / n.d. / n.d. | n.d. | 1 of 9 (3.60) |
| 16 | K24I E61R L100M | n.d. / 5.20 / n.d. | 5.20 | 1 of 9 (5.23) |
| 17 | Q27V S33F H98L | 2.01 / 1.79 / 2.50 | 2.10 | 1 of 9 (4.95) |
| 18 | Q27Y R34V L102Y | 2.99 / 2.76 / 4.30 | 3.35 | 1 of 9 (2.88) |
| 19 | W56E Q95N S103N | n.d. / 3.95 / n.d. | 3.95 | 1 of 9 (3.45) |
| 20 | E32H N35G Q95C | n.d. / n.d. / n.d. | n.d. | 0 of 9 |
| 21 | L100W | n.d. / n.d. / n.d. | n.d. | 6 of 9 (4.22) |
| 22 | Q27M S58P P101L | n.d. / n.d. / n.d. | n.d. | 0 of 9 |
| 23 | S25Q Y31E R60V | 2.99 / 1.74 / 1.90 | 2.21 | 1 of 9 (1.98) |
| 24 | R34F V39R L100S | 3.95 / 4.17 / n.d. | 4.06 | 4 of 9 (3.89) |
| 25 | S26R Q95S R99M | 1.21 / 1.10 / 1.17 | 1.16 | 4 of 9 (4.35) |
| 26 | E61P L100Y | 3.27 / 2.89 / 3.48 | 3.21 | 1 of 9 (4.49) |
| 27 | S26M T59C Y97S | 4.20 / 3.93 / n.d. | 4.07 | 3 of 9 (3.65) |
| 28 | Q27D S38H S58I | n.d. / n.d. / n.d. | n.d. | 0 of 9 |
| 29 | L30K R60N P101Q | n.d. / n.d. / n.d. | n.d. | 2 of 9 (4.64) |
| 30 | L30K V39S S103M | 4.52 / 3.15 / n.d. | 3.83 | 1 of 9 (3.13) |
| 31 | S33M S38C P101V | 3.17 / 2.73 / 3.32 | 3.07 | 0 of 9 |
| 32 | V29Y R60W | n.d. / n.d. / n.d. | n.d. | 0 of 9 |
| 33 | S38N Q95M L102A | n.d. / n.d. / n.d. | n.d. | 3 of 9 (3.48) |
| 34 | Q96F Y97E L100A | 1.36 / 1.27 / 1.60 | 1.41 | 0 of 9 |
| 35 | R99V L100T L102A | n.d. / n.d. / n.d. | n.d. | 0 of 9 |
| 36 | Y31W A57K | 2.12 / n.d. / 2.61 | 2.37 | 1 of 9 (3.03) |
| 37 | K24T S28I L102T | n.d. / n.d. / n.d. | n.d. | 1 of 9 (2.87) |
| 38 | K36Y S103L | n.d. / n.d. / n.d. | n.d. | 0 of 9 |
| 39 | L30I N37P V39D | n.d. / n.d. / n.d. | n.d. | 2 of 9 (4.22) |
| 40 | L30W Y31L S38Y | 2.34 / 2.74 / 2.83 | 2.63 | 0 of 9 |
| 41 | S25P S33C T59G | 6.30 / n.d. / n.d. | 6.30 | 2 of 9 (3.33) |
| 42 | V29I S38M E61C | 2.42 / 2.06 / n.d. | 2.24 | 0 of 9 |
| 43 | L30Y Q96W Y97S | n.d. / n.d. / n.d. | n.d. | 0 of 9 |
| 44 | L30D Q96D Y97I | n.d. / n.d. / n.d. | n.d. | 1 of 9 (3.78) |
| 45 | S26K Q27A E61A | n.d. / 3.08 / 2.37 | 2.72 | 0 of 9 |
| 46 | S26L S33Q S38T | n.d. / n.d. / n.d. | n.d. | 4 of 9 (5.10) |
| 47 | K24W V39S E61R | n.d. / n.d. / 4.68 | 4.68 | 1 of 9 (4.51) |

The closing 4 entries, repeated:

changes,"log10 Kd, replicates",mean log10 Kd (nM),signal with controls
L30D Q96D Y97I,n.d. / n.d. / n.d.,n.d.,1 of 9 (3.78)
S26K Q27A E61A,n.d. / 3.08 / 2.37,2.72,0 of 9
S26L S33Q S38T,n.d. / n.d. / n.d.,n.d.,4 of 9 (5.10)
K24W V39S E61R,n.d. / n.d. / 4.68,4.68,1 of 9 (4.51)

Three control strains display no target. For library AAYL50, 18% of the pairings with them gave a signal, with a median of 4.19 and one signal in twenty below 2.99, so weak values seen in few replicates may be background. For each scFv, signals with the empty controls are counted beside the result, with their mean in brackets.

Reference: Engelhart et al. 2022, doi:10.1038/s41597-022-01779-4. File: FLAb, binding data.